Source: PubChem BioAssay
Rtt109 HAT inh = C. albicans Rtt109 histone acetyltransferase inhibition; Q5AAJ8; AID 540336; purified Rtt109/Vps75, ThioGlo CoA-SH fluorescence, 4 h; hit rate 0.16% among 330,000; inhibition, % at 34.9 µM;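 active = inhibition of at least 50% in every replicate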
Cneo AK release = Cryptococcus neoformans lysis via adenylate kinase release; lysis activity, % at 15 µM; C. neoformans lysis, adenylate kinase release luminescence, 4 h; normalised: neutral wells 0, clomiphene wells 100; hit rate 0.2% among 360,000;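 active = mean lysis activity across replicates of at least 80%, whatever share of replicates individually reach that level; inactive = mean lysis activity below 80%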
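Material – Cryptococcus neoformans yeast cells · Quantity – 5 × 10^6 yeast cells/mL · Buffer or medium – YPD medium · Compound – single dose · Timing – 4 h static compound exposure, 37 °C, read 1 h post-reagent · Signal – adenylate kinase release luminescence · Read-out basis – lysis from increased AK signal · Benchmarks – Clomiphene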
CDK5 p35 inh = CDK5/p35 (human) kinase inhibition; Q00535+Q15078; Recombinant CDK5/p35, ADP-Glo luminescence, 60 min; inhibition, % at 10 µM; hit rate 0.01% among 330,000;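 active = highest replicate inhibition of at least 50% and at least 75% of replicates reaching 50%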;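 also: plate controls were DMSO neutral control for no effect and GW8510 at 10 µM for full effect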
UUG fidelity = modulators of start codon recognition fidelity in yeast; AID 602363; hit rate 0.13% among 350,000; activity score, % at 18.7 µM; S. cerevisiae UUG-firefly luciferase reporter, luminescence/redox ratio;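 active = replicate mean at a twofold rise or more, about +100% in these data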;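 note: firefly luciferase made from a UUG start codon reports start codon fidelity; reporter light over untreated wells divided by growth signal over untreated wells; some hits fall short of that in this replicate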
C2C12 statin = suppressors of simvastatin-induced myotoxicity in C2C12 myotubes; ATP luminescence, 48 h; scaled: DMSO 0, geranylgeraniol control 100; hit rate 0.78% among 330,000; rescue of ATP level, % at 7.49 µM; AID 602340;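 active = mean ATP rescue above about 67%, or every replicate alone reaching that limit, limit read from the data, passing the limit was not always enough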;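 also: myotubes were challenged with 10 µM simvastatin during compound exposure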
* = called active by the depositor; nt = no result. A selection: hits, their analogues and other compounds. The true share with any hit is near 1%.

| mol | Rtt109 HAT inh | UUG fidelity | C2C12 statin | Cneo AK release | CDK5 p35 inh |
| --- | --- | --- | --- | --- | --- |
| CO[C@H]1CN(C)C(=O)c2ccc(NC(=O)C3CC3)cc2OC[C@@H](C)N(C)C[C@@H]1C | nt | 12 | -4 | -25 | nt |
| O=C1c2ccccc2C(=Cc2cccnc2)c2ccccc21 | nt | -16 | 5 | -1 | nt |
| Cc1ccc(/C=C2\Sc3ccccc3C2=O)s1 | -12 | -29 | 87* | -3 | 3 |
| O=C1/C(=C/c2cccnc2)Sc2ccccc21 | -3 | -25 | 93* | 0 | 2 |
| CO[C@@H]1CN(C)C(=O)c2ccc(NC(=O)c3nc4ccccc4s3)cc2OC[C@H](C)NC[C@@H]1C | nt | nt | -12 | -5 | nt |
| NCC[C@H]1CC[C@@H](NC(=O)C2CCCC2)[C@H](CO)O1 | nt | -11 | -8 | -5 | nt |
| CCCOc1ccc(/C=c2\sc3nc(-c4ccco4)nn3c2=O)cc1OCC | 7 | 9 | 98* | -2 | 0 |
| CC(=O)Oc1cccc(/C=c2\sc3nc(-c4ccco4)nn3c2=O)c1 | 3 | nt | nt | nt | -1 |
| Oc1ccc(-c2cn3c(n2)SCC3)cc1 | 2 | -23 | 97* | -2 | 3 |
| COc1ccc(C2CC(C(F)(F)F)n3nc(C(=O)NCCN4CCOCC4)cc3N2)cc1 (configuration not stated) | -3 | -22 | 90* | -1 | 1 |
| COc1ccc(NC(=O)c2cc3n(n2)C(C(F)(F)F)CC(c2ccc(OC)cc2)N3)cc1 (configuration not stated) | -1 | -18 | -28 | -1 | -1 |
| COCC(=O)N(C)C[C@@H]1Oc2cc(C#CC3CCCC3)ccc2S(=O)(=O)N([C@H](C)CO)C[C@H]1C | nt | nt | -19 | nt | nt |
| CC(=O)Nc1ccc2c(c1)C(=O)N(C)[C@H]1CC[C@@H](CC(=O)NCc3ccccc3)O[C@@H]1CO2 | nt | -4 | 6 | 9 | nt |
| O=C(O)/C=C/c1cn(-c2ccccc2)nc1-c1ccccc1 | 3 | -4 | 90* | -2 | -1 |
| O=C(c1ccccc1)c1cccn1CC(=O)N1CCCCCC1 | -3 | nt | 110* | nt | 1 |
| Cc1ccc(CN2CCN(CC(=O)NCc3ccccc3)CC2)cc1 | 53* | 6 | -1 | 1 | 1 |
| O=C(Cn1cccc1C(=O)c1ccccc1)NCc1ccc(Cl)cc1 | -4 | nt | nt | nt | -1 |
| Cc1ccc(CNC(=O)Cn2cccc2C(=O)c2ccccc2)cc1 | -2 | -21 | 109* | 3 | 0 |
| COC(=O)C[C@@H]1C[C@H]2c3cc(NC(=O)Nc4ccc(C(F)(F)F)cc4)ccc3O[C@H]2[C@H](CO)O1 | nt | 6 | -6 | 3 | nt |
| O=C(NC1CCN(C(=O)N2c3ccccc3Sc3ccccc32)CC1)c1ccccc1F | -6 | -7 | 76* | 1 | 0 |
| CC1CCN(C(=O)N2c3ccccc3Sc3ccccc32)CC1 | -12 | 4 | 13 | 1 | 0 |
| C[C@@H]1CN([C@@H](C)CO)C(=O)Cc2cc(NC(=O)NC3CCCCC3)ccc2O[C@H]1CN(C)S(=O)(=O)c1cccs1 | nt | 13 | -11 | 2 | nt |
| Cc1ccc(S(=O)(=O)c2cccc(S(=O)(=O)N3CCOCC3)c2)cc1S(=O)(=O)N1CCOCC1 | -6 | -8 | nt | 1 | nt |
| Cc1ccc(S(=O)(=O)c2cccc(S(=O)(=O)N3CCCC3)c2)cc1S(=O)(=O)N1CCCC1 | -2 | -14 | 90* | -3 | 0 |

An excerpt from above in order of their number in UUG fidelity, descending:
compound,Rtt109 HAT inh,UUG fidelity,CDK5 p35 inh
CCCOc1ccc(/C=c2\sc3nc(-c4ccco4)nn3c2=O)cc1OCC,7,9,0
Cc1ccc(S(=O)(=O)c2cccc(S(=O)(=O)N3CCOCC3)c2)cc1S(=O)(=O)N1CCOCC1,-6,-8,nt
Cc1ccc(S(=O)(=O)c2cccc(S(=O)(=O)N3CCCC3)c2)cc1S(=O)(=O)N1CCCC1,-2,-14,0
COc1ccc(C2CC(C(F)(F)F)n3nc(C(=O)NCCN4CCOCC4)cc3N2)cc1 (configuration not stated),-3,-22,1

Continuation.
| mol | Rtt109 HAT inh | UUG fidelity | C2C12 statin | Cneo AK release | CDK5 p35 inh |
| --- | --- | --- | --- | --- | --- |
| Cc1ccc(NC(=O)CN2C(=O)COc3ccc(C)cc32)nc1 | 0 | -21 | 81* | -2 | 1 |
| Cc1ccc2c(c1)N(CC(=O)NCCc1c[nH]c3ccccc13)C(=O)CO2 | -3 | -4 | 80* | -1 | -1 |
| Cc1ccc2[nH]cc(CCNC(=O)CN3C(=O)c4ccccc4C3=O)c2c1 | 4 | nt | 3 | nt | 1 |
| CCOc1[nH]n(-c2ccccc2)c(=O)c1C=Nc1ccc(Cl)cc1 | 3 | -7 | 120* | 5 | -1 |
| COc1ccc(NC(=O)Nc2ccc3c(c2)C(=O)N([C@H](C)CO)C[C@H](C)[C@@H](CN(C)Cc2ccc(Oc4ccccc4)cc2)O3)cc1 | nt | 14 | 16 | 39 | nt |
| CCN(CC)C(=O)CSc1ccccc1N | -12 | -11 | 116* | 3 | 2 |
| COc1cccc(C(=O)Nc2ccc3c(c2)OC[C@@H](C)N(C(=O)C2CC2)C[C@@H](C)[C@H](OC)CN(C)C3=O)c1 | nt | 8 | 1 | -12 | nt |
| COc1ccc(/C=C/C2=NC(=C\N(C)C)/C(=O)O2)cc1 | -44 | 6 | 114* | -4 | -1 |
| CN(C)/C=C1\N=C(c2ccccc2)OC1=O | 23 | -13 | 10 | 2 | -1 |
